## scFv variants of Ab-14 (heavy chain) against a SARS-CoV-2 spike peptide

All variants were tested on one target, the spike HR2 peptide PDVDLGDISGINAS (SARS-CoV-2).

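The starting antibody came from a phage panning campaign against this peptide. This is the validation round: designs drawn from the data on random variants, tested in the same kind of assay. Their group label is 14H_GP_HC (GP: Gaussian process model; HC: hill climbing; a sequence that several methods proposed may carry one label only). The scFvs were displayed on barcoded MATa yeast, the peptide on MATalpha yeast. Mating (16 h, 30 °C) was followed by selection of diploids and sequencing of their barcodes. A regression on co-assayed BCL2-family reference pairs converts the normalised counts of each replicate to an apparent Kd. Each pool was mated in six replicate cultures.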

The variants keep the light chain, the linker and the frameworks of Ab-14 (scFv order VH, a (GGGGS)3 linker, VL).
VH: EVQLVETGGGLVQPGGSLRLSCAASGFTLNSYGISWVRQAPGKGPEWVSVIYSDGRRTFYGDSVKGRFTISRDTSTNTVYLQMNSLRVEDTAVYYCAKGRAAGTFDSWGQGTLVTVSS
VL: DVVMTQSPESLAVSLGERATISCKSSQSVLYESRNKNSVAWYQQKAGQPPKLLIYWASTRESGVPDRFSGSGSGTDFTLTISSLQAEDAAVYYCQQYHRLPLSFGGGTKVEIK

Changes read parent residue, position, new residue, counted from the first residue of the VH shown. Values are log10 of the apparent Kd in nM; lower means stronger binding. An entry "n.d." has no value in the source: the pair was not observed among the diploids in that replicate. This suggests poor binding but is not conclusive. The authors averaged sequences with at least three values out of six and counted those with two or fewer as poor binders.

changes	log10 Kd, replicates	control signals
T28W+S31D+F59M	n.d. / n.d. / n.d. / n.d. / n.d. / n.d.	0/18
S31D+G61K+D106R	n.d. / n.d. / n.d. / n.d. / n.d. / n.d.	0/18
N30E+S31M	n.d. / n.d. / n.d. / n.d. / n.d. / 2.48	1/18 (2.83)
T28K+G61T+R100Q+A101L	0.68 / 0.08 / -0.04 / -0.31 / 0.16 / 0.02	1/18 (3.49)
T28V+G61D+R100Q+A101T	2.05 / 1.24 / 1.00 / 1.20 / 0.55 / n.d.	0/18
T28L+S31D+S63A+S107I	1.49 / 1.33 / 1.30 / 0.88 / 1.23 / 1.66	1/18 (2.39)
S31A+G61S+R100E+S107K	n.d. / 0.37 / 0.33 / 0.53 / 0.77 / 0.50	0/18
S31Q+S53A+R100Q	-0.23 / -0.45 / -0.68 / -0.50 / -0.78 / -0.24	0/18
T28E+S31E+G103V	n.d. / n.d. / n.d. / n.d. / n.d. / n.d.	0/18
T28L+S31D+G61H	0.65 / 1.49 / 1.60 / 0.57 / 0.09 / 0.48	0/18
G26D+G61A+R100Q+A101L	1.47 / 0.99 / 0.75 / 2.06 / n.d. / n.d.	0/18
T28S+S31D+G103L+S107L	n.d. / n.d. / n.d. / n.d. / n.d. / n.d.	0/18
S31E+A101E+S107D	0.44 / -0.04 / -0.05 / 0.06 / 0.19 / 0.26	1/18 (1.35)
T28W+S31D+F59H+G61I	n.d. / 0.96 / 1.21 / 0.10 / 1.01 / 1.74	0/18
S31E+S53A+S107K	-0.24 / -0.22 / -0.52 / -0.31 / -0.35 / -0.43	3/18 (3.12)
T28D+G61L+R100Q+A101I	0.96 / 0.98 / 1.35 / 1.17 / 0.81 / 0.70	1/18 (2.01)
S31E+G103E+S107T	n.d. / n.d. / n.d. / 2.72 / n.d. / n.d.	0/18
T28G+S31D+R100K	n.d. / n.d. / n.d. / n.d. / n.d. / n.d.	0/18
T28A+G61D+R100Q+A101M	0.06 / 0.45 / 1.52 / 0.22 / 1.04 / 1.26	0/18
G26K+S31E+G61T+A101I	1.77 / n.d. / 1.40 / 1.27 / 1.61 / 1.18	0/18
T28S+S31E+G103L+S107G	n.d. / n.d. / n.d. / n.d. / n.d. / n.d.	0/18
T28D+A101I+D106N	1.61 / 1.21 / 1.22 / 1.10 / 1.45 / 1.25	0/18
T28S+S31D+G61I+S63H+R100K	0.34 / 0.38 / 0.14 / 0.35 / 0.44 / 0.70	2/18 (1.83)
S31E+G61A+G103V+S107T	-1.02 / -1.19 / -1.62 / -1.24 / -0.73 / 0.35	0/18
F27P+S31D+F59Q+G61I	n.d. / n.d. / 2.28 / n.d. / n.d. / n.d.	0/18
S31D+F59W+A101N	0.90 / 0.72 / 1.07 / 0.83 / 1.06 / 1.09	0/18
G26W+S31D+F59M+G61I	n.d. / n.d. / n.d. / n.d. / n.d. / n.d.	0/18
S31E+A101V+D106T	1.05 / 0.77 / 1.29 / 1.12 / 0.99 / 1.20	0/18
S31E+G61S+R100M+S107N	-0.07 / 0.21 / 0.28 / 0.25 / 0.15 / 0.21	0/18
T28D+D106W	n.d. / n.d. / n.d. / n.d. / n.d. / n.d.	0/18
G26Y+S31E+G61D+A101N	n.d. / 2.16 / 0.64 / 0.86 / 1.66 / 1.85	0/18
T28S+G61R	n.d. / n.d. / n.d. / n.d. / n.d. / n.d.	0/18
S31E+F59M+G61T+A101Q	0.54 / 0.57 / 1.20 / 0.33 / 0.35 / 0.47	0/18
S31E+G61Q+R100F+S107L	0.77 / n.d. / n.d. / n.d. / 0.67 / n.d.	0/18
T28D+G61S+R100W+A102G	n.d. / n.d. / n.d. / n.d. / n.d. / 2.11	0/18
S31E+A101F+S107V	n.d. / 0.27 / n.d. / 0.92 / n.d. / -0.02	0/18
T28E+S31D+F59E	1.38 / 1.07 / 0.71 / n.d. / 0.45 / 1.48	0/18
S31E+G61T+T104I	n.d. / n.d. / n.d. / n.d. / n.d. / n.d.	0/18

Top 6 of the variants detected in all replicates, tightest first:

changes	log10 Kd, replicates	control signals
S31E+G61A+G103V+S107T	-1.02 / -1.19 / -1.62 / -1.24 / -0.73 / 0.35	0/18
S31Q+S53A+R100Q	-0.23 / -0.45 / -0.68 / -0.50 / -0.78 / -0.24	0/18
S31E+S53A+S107K	-0.24 / -0.22 / -0.52 / -0.31 / -0.35 / -0.43	3/18 (3.12)
T28K+G61T+R100Q+A101L	0.68 / 0.08 / -0.04 / -0.31 / 0.16 / 0.02	1/18 (3.49)
S31E+A101E+S107D	0.44 / -0.04 / -0.05 / 0.06 / 0.19 / 0.26	1/18 (1.35)
S31E+G61S+R100M+S107N	-0.07 / 0.21 / 0.28 / 0.25 / 0.15 / 0.21	0/18

Values of this round are not directly comparable with the first-round values of the same sequences. As a blank, each scFv also met three strains without target: over all heavy chain designs, 1% of these pairings were detected, typically at 2.08 and seldom below 0.84. The control count says in how many pairings with the empty strains this scFv gave a signal, with their mean in brackets.

Values reported by Li et al. 2023, doi:10.1038/s41467-023-39022-2 (FLAb copy).